In patent US20240173419A1, “CDK2 DEGRADERS AND USES THEREOF” (Kymera Therapeutics, Inc., priority 2022, published 2024):

Molecular target: CDK2 (Homo sapiens, UniProt P24941)
Experiment: CDK2 degradation in MKN1 cells (AlphaLISA)
Settings: for CDK2 degradation 14 h: Average Dmax %: 14 h incubation; for DC50: read-out: CDK2 degradation 14 h: Mean external-Abs DC50, 14 h incubation
How it was run: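 MKN1 cells (2e4/well) treated 14 h at 37° C with 11-point 1:5 dilutions (0.001 nM-10 μM, 0.1% DMSO). CDK2 in lysates quantified by AlphaLISA, no-cell background subtracted; DC50 from four-parameter logistic fit.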

Row | CDK2 degradation 14 h: Average Dmax % | DC50 | SMILES
1 | A (A (>75% o)) | < 100 nM | C[C@]1(O)CCCN(c2nc(Nc3ccc(S(=O)(=O)N[C@H]4CC[C@H](CN5CCN(c6ccc(C7CCC(=O)NC7=O)cc6F)CC5)CC4)cc3F)ncc2C(F)(F)F)C1 (stereo partly drawn)
2 | D (D (<25%)) | > 1000 nM | Cc1cc(S(=O)(=O)C2CC3(CCN(Cc4cccc5c4n(C)c(=O)n5C4CCC(=O)NC4=O)CC3)C2)ccc1Nc1ncc(C(F)(F)F)c(N2CCC[C@](C)(O)C2)n1 (stereo partly drawn)
3 | A (A (>75% o)) | < 100 nM | Cc1cc(S(=O)(=O)C2CC3(CCN(CC4CCN(c5cccc6c5n(C)c(=O)n6C5CCC(=O)NC5=O)CC4)CC3)C2)ccc1Nc1ncc(C(F)(F)F)c(N2CCC(C)(O)CC2)n1 (stereo not drawn)
4 | A (A (>75% o)) | < 100 nM | Cc1cc(S(=O)(=O)N[C@H](C)CO[C@H]2CC[C@H](CN3CCN(c4ccc5c(c4F)n(C)c(=O)n5C4CCC(=O)NC4=O)CC3)CC2)ccc1Nc1ncc(C(F)(F)F)c(N2CCC[C@](C)(O)C2)n1 (stereo partly drawn)
5 | A (A (>75% o)) | < 100 nM | Cc1cc(S(=O)(=O)C2CC3(CCN(CC4CCN(c5ccc6c(c5F)n(C)c(=O)n6C5CCC(=O)NC5=O)CC4)CC3)C2)ccc1Nc1ncc(C(F)(F)F)c(N2CC(C)CC(C)(O)C2)n1 (stereo not drawn)
6 | D (D (<25%)) | > 1000 nM | Cc1cc(S(=O)(=O)N[C@H]2CC[C@H](CC#Cc3ccc(C4CCC(=O)NC4=O)c(Cl)c3)CC2)ccc1Nc1ncc(C(F)(F)F)c(N2CCC[C@](C)(O)C2)n1 (stereo partly drawn)
7 | A (A (>75% o)) | < 100 nM | COc1cc(C2CCC(=O)NC2=O)ccc1N1CCN(C[C@H]2CC[C@H](NS(=O)(=O)c3ccc(Nc4ncc(C(F)(F)F)c(N5CCC[C@](C)(O)C5)n4)c(C)c3)CC2)CC1 (stereo partly drawn)
8 | A (A (>75% o)) | < 100 nM | Cc1cc(S(=O)(=O)N[C@H](C)CO[C@H]2CC[C@H](CN3CC(c4cccc5c4n(C)c(=O)n5C4CCC(=O)NC4=O)C3)CC2)ccc1Nc1ncc(C(F)(F)F)c(N2CCC[C@](C)(O)C2)n1 (stereo partly drawn)
9 | A (A (>75% o)) | < 100 nM | Cc1cc(S(=O)(=O)NC2CCC(O)(CC3CCN(c4ccc(C5CCC(=O)NC5=O)c(F)c4)CC3)CC2)ccc1Nc1ncc(C(F)(F)F)c(N2CCC[C@](C)(O)C2)n1 (stereo partly drawn)
